Our source for the IC50 values is ChEMBL document CHEMBL4052703, “Cyclic tetrapeptide HDAC inhibitors as potential therapeutics for spinal muscular atrophy: Screening with iPSC-derived neuronal cells” (Bioorg Med Chem Lett, 2017).

Sequences of proteins named here, by UniProt entry; tags and fusion partners are left off. A change or cut given only in a name is not applied to a line headed by its entry.
UniProt O15379: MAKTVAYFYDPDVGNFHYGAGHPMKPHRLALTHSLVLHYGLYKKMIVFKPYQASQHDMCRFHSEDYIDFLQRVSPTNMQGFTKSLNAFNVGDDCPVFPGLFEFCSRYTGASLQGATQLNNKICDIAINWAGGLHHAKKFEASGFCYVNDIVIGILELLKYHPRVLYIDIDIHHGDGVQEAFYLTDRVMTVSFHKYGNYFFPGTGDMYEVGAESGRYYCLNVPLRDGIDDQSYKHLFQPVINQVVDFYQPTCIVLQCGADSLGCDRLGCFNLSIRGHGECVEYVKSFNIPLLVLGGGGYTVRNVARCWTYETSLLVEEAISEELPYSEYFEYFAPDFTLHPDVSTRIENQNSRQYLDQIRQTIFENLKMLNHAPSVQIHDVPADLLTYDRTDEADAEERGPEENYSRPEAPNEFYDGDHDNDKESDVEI

pIC50: −log10 of the molar value.

This assay concerns the target Histone deacetylase 3 (Homo sapiens, UniProt O15379). In words: Inhibition of HDAC3 (unknown origin).

In the case of `CC(C)C[C@H]1CC(=O)N[C@@H](C)C(=O)N[C@@H](CCCCCC(=O)NO)C(=O)N[C@@H](Cc2c[nH]c3ccccc23)C(=O)N1`, the negative-log IC50 (pIC50) – broadly, −log10 of the IC50, conventionally taken in molar units – was 8.10.
